{
  "source": "patent US10189836B2",
  "about": "“Therapeutic compounds, compositions and methods of use thereof” (Genentech, Inc., priority 2015, dated 2019)",
  "data": [
    {"test_system": "JAK1-dependent STAT6 phosphorylation downstream of IL-13 stimulation in BEAS-2B cells", "units": {"IC50": "nM"}, "values": [
      {"smiles": "CN1CCN(C(=O)Cn2cc(Nc3nc4c(N5CC6CCC(C5)N6C(=O)C5CCC(F)(F)CC5)cccn4n3)cn2)CC1", "note": "[Example 51, 2-[4-[[8-[8-(4,4-difluorocyclohexanecarbonyl)-3,8-diazabicyclo[3.2.1]octan-3-yl]-[1,2,4]triazolo[1,5-a]pyridin-2-yl]amino]pyrazol-1-yl]-1-(4-methylpiperazin-1-yl)ethanone]", "IC50": 70.4},
      {"smiles": "CN1CCN(C(=O)Cn2cc(Nc3nc4c(N5CC6CCC(C5)C6=CC#N)cccn4n3)cn2)CC1", "note": "[Example 118, 2-[3-[2-[[1-[2-(4-methylpiperazin-1-yl)-2-oxo-ethyl]pyrazol-4-yl]amino]-[1,2,4]triazolo[1,5-a]pyridin-8-yl]-3-azabicyclo[3.2.1]octan-8-ylidene]acetonitrile]", "IC50": 23.4},
      {"smiles": "CN1CCN(C(=O)Cn2cc(Nc3nc4c(N5CC6CCC(C5)N6C(=O)C5CC5(F)F)cccn4n3)cn2)CC1", "note": "(centres unmarked) [Example 37, 2-[4-[[8-[8-(2,2-difluorocyclopropanecarbonyl)-3,8-diazabicyclo[3.2.1]octan-3-yl]-[1,2,4]triazolo[1,5-a]pyridin-2-yl]amino]pyrazol-1-yl]-1-(4-methylpiperazin-1-yl)ethanone]", "IC50": 72.6},
      {"smiles": "CN1CCN(C(=O)Cn2cc(Nc3nc4c(N5CC6CCC(C5)N6S(=O)(=O)c5cccs5)cccn4n3)cn2)CC1", "note": "[Example 112, 1-(4-methylpiperazin-1-yl)-2-[4-[[8-[8-(2-thienylsulfonyl)-3,8-diazabicyclo[3.2.1]octan-3-yl]-[1,2,4]triazolo[1,5-a]pyridin-2-yl]amino]pyrazol-1-yl]ethanone]", "IC50": 25},
      {"smiles": "CN1CCN(C(=O)Cn2cc(Nc3nc4c(N5CC6CCC(C5)N6C(=O)CC5CSCCS5)cccn4n3)cn2)CC1", "note": "(centres unmarked) [Example 9, 2-(1,4-dithian-2-yl)-1-[3-[2-[[1-[2-(4-methylpiperazin-1-yl)-2-oxo-ethyl]pyrazol-4-yl]amino]-[1,2,4]triazolo[1,5-a]pyridin-8-yl]-3,8-diazabicyclo[3.2.1]octan-8-yl]ethanone]", "IC50": 59.2},
      {"smiles": "CN1CCN(C(=O)Cn2cc(Nc3nc4c(N5CC6CCC(C5)N6c5ccc(Cl)cc5)cccn4n3)cn2)CC1", "note": "[Example 113, 2-[4-[[8-[8-(4-chlorophenyl)-3,8-diazabicyclo[3.2.1]octan-3-yl]-[1,2,4]triazolo[1,5-a]pyridin-2-yl]amino]pyrazol-1-yl]-1-(4-methylpiperazin-1-yl)ethanone]", "IC50": 15.8},
      {"smiles": "CC(CC(F)(F)F)C(=O)N1C2CCC1CN(c1cccn3nc(Nc4cnn(CC(=O)N5CCN(C)CC5)c4)nc13)C2", "note": "(centres unmarked) [Example 47, 4,4,4-trifluoro-2-methyl-1-[3-[2-[[1-[2-(4-methylpiperazin-1-yl)-2-oxo-ethyl]pyrazol-4-yl]amino]-[1,2,4]triazolo[1,5-a]pyridin-8-yl]-3,8-diazabicyclo[3.2.1]octan-8-yl]butan-1-one]", "IC50": 68},
      {"smiles": "CN1CCN(C(=O)Cn2cc(Nc3nc4c(N5CC6CCC(C5)N6S(=O)(=O)c5cccc(C(F)(F)F)c5)cccn4n3)cn2)CC1", "note": "[Example 133, 1-(4-methylpiperazin-1-yl)-2-[4-[[8-[8-(3-(trifluoromethyl)phenyl]sulfonyl-3,8-diazabicyclo[3.2.1]octan-3-yl]-[1,2,4]triazolo[1,5-a]pyridin-2-yl]amino]pyrazol-1-yl]ethanone]", "IC50": 51.9},
      {"smiles": "CN1CCN(C(=O)Cn2cc(Nc3nc4c(N5CC6CCC(C5)N6C(=O)C5CC(F)(F)C5)cccn4n3)cn2)CC1", "note": "[Example 46, 2-[4-[[8-[8-(3,3-difluorocyclobutanecarbonyl)-3-yl]-3,8-diazabicyclo[3.2.1]octan-[1,2,4]triazolo[1,5-a]pyridin-2-yl]amino]pyrazol-1-yl]-1-(4-methylpiperazin-1-yl)ethanone]", "IC50": 73.8},
      {"smiles": "CN1CCN(C(=O)Cn2cc(Nc3nc4c(N5CC6CCC(C5)N6C(=O)c5cncs5)cccn4n3)cn2)CC1", "note": "[Example 78, 1-(4-methylpiperazin-1-yl)-2-[4-[[8-[8-(thiazole-5-carbonyl)-3,8-diazabicyclo[3.2.1]octan-3-yl]-[1,2,4]triazolo[1,5-a]pyridin-2-yl]amino]pyrazol-1-yl]ethanone]", "IC50": 75.8},
      {"smiles": "CN1CCN(C(=O)Cn2cc(Nc3nc4c(N5CC6CCC(C5)N6C(=O)c5ccccc5Cl)cccn4n3)cn2)CC1", "note": "[Example 114]", "IC50": 95.8},
      {"smiles": "CN1CCN(C(=O)Cn2cc(Nc3nc4c(N5CC6CCC(C5)N6CC(F)(F)F)cccn4n3)cn2)CC1", "note": "[Example 98, 1-(4-methylpiperazin-1-yl)-2-[4-[[8-[8-(2,2,2-trifluoroethyl)-3,8-diazabicyclo[3.2.1]octan-3-yl]-[1,2,4]triazolo[1,5-a]pyridin-2-yl]amino]pyrazol-1-yl]ethanone]", "IC50": 78},
      {"smiles": "CN1CCN(C(=O)Cn2cc(Nc3nc4c(N5C[C@H]6CC[C@@H](C5)[C@H]6N(C)CCC(F)(F)F)cccn4n3)cn2)CC1", "note": "[Example 127, 1-(4-methylpiperazin-1-yl)-2-[4-[[8-[(1S,5R)-8-[methyl(3,3,3-trifluoropropyl)amino]-3-azabicyclo[3.2.1]octan-3-yl]-[1,2,4]triazolo[1,5-a]pyridin-2-yl]amino]pyrazol-1-yl]ethanone]", "IC50": 180},
      {"smiles": "CSCCN1CCN(C(=O)Cn2cc(Nc3nc4c(N5CC6CCC(C5)N6C(=O)C5CC(C(F)(F)F)C5)cccn4n3)cn2)CC1", "note": "(centres unmarked) [Example 197, 1-[4-(2-methylsulfanylethyl)-piperazin-1-yl]-2-[4-[[8-[8-[3-(trifluoromethyl)-cyclobutanecarbonyl]-3,8-diazabicyclo[3.2.1]octan-3-yl]-[1,2,4]triazolo[1,5-a]pyridin-2-yl]amino]pyrazol-1-yl]ethanone]", "IC50": 23.1},
      {"smiles": "CN1CCN(C(=O)Cn2cc(Nc3nc4c(N5CC6CCC(C5)N6S(=O)(=O)c5ccccc5C#N)cccn4n3)cn2)CC1", "note": "[Example 147, 2-[[3-[2-[[1-[2-(4-methylpiperazin-1-yl)-2-oxo-ethyl]pyrazol-4-yl]amino]-[1,2,4]triazolo[1,5-a]pyridin-8-yl]-3,8-diazabicyclo[3.2.1]octan-8-yl]sulfonyl]benzonitrile]", "IC50": 51.3},
      {"smiles": "CN1CCN(C(=O)Cn2cc(Nc3nc4c(N5CC6CCC(C5)N6C(=O)c5ccsc5)cccn4n3)cn2)CC1", "note": "[Example 157, 1-(4-methylpiperazin-1-yl)-2-[4-[[8-[8-(thiophene-3-carbonyl)-3,8-diazabicyclo[3.2.1]octan-3-yl]-[1,2,4]triazolo[1,5-a]pyridin-2-yl]amino]pyrazol-1-yl]ethanone]", "IC50": 26.9},
      {"smiles": "CN1CCN(C(=O)Cn2cc(Nc3nc4c(N5CC6CCC(C5)N6S(=O)(=O)c5ccccc5F)cccn4n3)cn2)CC1", "note": "[Example 150, 2-[4-[[8-[8-(2-fluorophenyl)sulfonyl-3,8-diazabicyclo[3.2.1]octan-3-yl]-[1,2,4]triazolo[1,5-a]pyridin-2-yl]amino]pyrazol-1-yl]-1-(4-methylpiperazin-1-yl)ethanone]", "IC50": 31.7},
      {"smiles": "CN1CCN(C(=O)Cn2cc(Nc3nc4c(N5CC6CCC(C5)N6C(=O)N5CCC(F)(F)CC5)cccn4n3)cn2)CC1", "note": "[Example 188, 2-[4-[[8-[8-(4,4-difluoropiperidine-1-carbonyl)-3,8-diazabicyclo[3.2.1]octan-3-yl]-[1,2,4]triazolo[1,5-a]pyridin-2-yl]amino]pyrazol-1-yl]-1-(4-methylpiperazin-1-yl)ethanone]", "IC50": 16.8},
      {"smiles": "CSc1cccc(S(=O)(=O)N2C3CCC2CN(c2cccn4nc(Nc5cnn(CC(=O)N6CCN(C)CC6)c5)nc24)C3)c1", "note": "[Example 169, 1-(4-methylpiperazin-1-yl)-2-[4-[[8-[8-(3-methylsulfanylphenyl)sulfonyl-3,8-diazabicyclo[3.2.1]octan-3-yl]-[1,2,4]triazolo[1,5-a]pyridin-2-yl]amino]pyrazol-1-yl]ethanone]", "IC50": 31.2},
      {"smiles": "CN1CCN(C(=O)Cn2cc(Nc3nc4c(N5CC6CCCC(C5)N6C(=O)CCC(F)(F)F)cccn4n3)cn2)CC1", "note": "[Example 4, 4,4,4-trifluoro-1-[3-[2-[[1-[2-(4-methylpiperazin-1-yl)-2-oxo-ethyl]pyrazol-4-yl]amino]-[1,2,4]triazolo[1,5-a]pyridin-8-yl]-3,9-diazabicyclo[3.3.1]nonan-9-yl]butan-1-one]", "IC50": 13.2},
      {"smiles": "CN1CCN(C(=O)Cn2cc(Nc3nc4c(N5CC6CCC(C5)N6C(=O)CC(C)(C)C(F)(F)F)cccn4n3)cn2)CC1", "note": "[Example 77, 4,4,4-trifluoro-3,3-dimethyl-1-[3-[2-[[1-[2-(4-methylpiperazin-1-yl)-2-oxo-ethyl]pyrazol-4-yl]amino]-[1,2,4]triazolo[1,5-a]pyridin-8-yl]-3,8-diazabicyclo[3.2.1]octan-8-yl]butan-1-one]", "IC50": 59.8},
      {"smiles": "COC(=O)N1CCN(CC2CCN(C(=O)Cn3cc(Nc4nc5c(N6CC7CCC(C6)N7C(=O)CCC(F)(F)F)cccn5n4)cn3)CC2)CC1", "note": "[Example 79, methyl 4-[[1-[2-[4-[[8-[8-(4,4,4-trifluorobutanoyl)-3,8-diazabicyclo[3.2.1]octan-3-yl]-[1,2,4]triazolo[1,5-a]pyridin-2-yl]amino]pyrazol-1-yl]acetyl]-4-piperidyl]methyl]piperazine-1-carboxylate]", "IC50": 60},
      {"smiles": "CN1CCN(C(=O)Cn2cc(Nc3nc4c(N5CC6CCC(C5)N6C(=O)CC(O)C(F)(F)F)cccn4n3)cn2)CC1", "note": "(centres unmarked) [Example 154, 4,4,4-trifluoro-3-hydroxy-1-[3-[2-[[1-[2-(4-methylpiperazin-1-yl)-2-oxo-ethyl]pyrazol-4-yl]amino]-[1,2,4]triazolo[1,5-a]pyridin-8-yl]-3,8-diazabicyclo[3.2.1]octan-8-yl]butan-1-one]", "IC50": 38.4},
      {"smiles": "CN1CCN(C(=O)Cn2cc(Nc3nc4c(N5CC6CCC(C5)N6C(=O)CC5CC(F)(F)C5)cccn4n3)cn2)CC1", "note": "[Example 8, 2-(3,3-difluorocyclobutyl)-1-[3-[2-[[1-[2-(4-methylpiperazin-1-yl)-2-oxo-ethyl]pyrazol-4-yl]amino]-[1,2,4]triazolo[1,5-a]pyridin-8-yl]-3,8-diazabicyclo[3.2.1]octan-8-yl]ethanone]", "IC50": 36.6},
      {"smiles": "CN1CCN(C(=O)Cn2cc(Nc3nc4c(N5CC6CCC(C5)N6C(=O)c5ccc(C#N)cc5)cccn4n3)cn2)CC1", "note": "[Example 185]", "IC50": 25.2},
      {"smiles": "CN1CCN(C(=O)Cn2cc(Nc3nc4c(N5CC6CCC(C5)N6C(=O)C5CCC(F)(F)C5)cccn4n3)cn2)CC1", "note": "(centres unmarked) [Example 58, 2-[4-[[8-[8-(3,3-difluorocyclopentanecarbonyl)-3,8-diazabicyclo[3.2.1]octan-3-yl]-[1,2,4]triazolo[1,5-a]pyridin-2-yl]amino]pyrazol-1-yl]-1-(4-methylpiperazin-1-yl)ethanone]", "IC50": 98}
    ]}
  ]
}
